pEC50, pKi: −log10 of the molar value.
What was measured:
Mu-type opioid receptor = Mu-type opioid receptor (Homo sapiens, UniProt P35372); assay: Stimulation of [35S]GTP-gamma-S, binding to recombinant human Opioid receptor mu 1 expressed in CHO cells
[1] = molecular target: Delta-type opioid receptor (Homo sapiens, UniProt P41143); assay: Displacement of [3H]C1-DPDPE from human recombinant Opioid receptor delta 1 on CHO cell membranes.

Chains of the proteins cited; added tags and fusions are not shown.
UniProt P35372, whole entry, looked up: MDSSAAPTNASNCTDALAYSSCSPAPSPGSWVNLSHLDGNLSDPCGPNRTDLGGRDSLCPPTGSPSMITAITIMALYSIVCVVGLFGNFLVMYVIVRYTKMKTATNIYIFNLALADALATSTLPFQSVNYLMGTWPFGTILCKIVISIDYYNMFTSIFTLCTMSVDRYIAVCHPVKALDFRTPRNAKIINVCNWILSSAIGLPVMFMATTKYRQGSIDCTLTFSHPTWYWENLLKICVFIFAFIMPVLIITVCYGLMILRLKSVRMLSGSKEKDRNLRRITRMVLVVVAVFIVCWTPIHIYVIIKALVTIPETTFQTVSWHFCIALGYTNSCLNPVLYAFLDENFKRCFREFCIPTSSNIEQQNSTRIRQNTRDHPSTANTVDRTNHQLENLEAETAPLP
UniProt P41143, whole entry, looked up: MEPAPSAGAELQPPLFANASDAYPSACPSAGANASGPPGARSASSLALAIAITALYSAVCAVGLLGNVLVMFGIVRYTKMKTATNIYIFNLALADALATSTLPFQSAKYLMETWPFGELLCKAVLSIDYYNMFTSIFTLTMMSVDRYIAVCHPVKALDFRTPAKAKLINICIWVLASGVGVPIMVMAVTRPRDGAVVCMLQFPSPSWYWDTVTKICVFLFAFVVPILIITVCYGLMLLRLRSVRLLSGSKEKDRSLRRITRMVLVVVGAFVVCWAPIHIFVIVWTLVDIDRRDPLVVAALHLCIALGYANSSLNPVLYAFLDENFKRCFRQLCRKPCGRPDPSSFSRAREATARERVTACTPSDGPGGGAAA

## CN(C(=O)Cc1ccccc1)[C@H]1C[C@@]2(CCCO2)CC[C@@H]1N1CCCC1
Mu-type opioid receptor
  pEC50: < 5.00
[1]
  pKi: < 5.00

— BindingDB's records for 12672258 (University of Bath, 2003)
